Experimental data as given in BindingDB's records for PubMed 1930610 (Eli Lilly, 1991).
Structures can show the parent of a compound that is named as a salt.

Protein sequences, listed by entry. Tags and fused reporters are not part of them.
UniProt P14842, whole entry: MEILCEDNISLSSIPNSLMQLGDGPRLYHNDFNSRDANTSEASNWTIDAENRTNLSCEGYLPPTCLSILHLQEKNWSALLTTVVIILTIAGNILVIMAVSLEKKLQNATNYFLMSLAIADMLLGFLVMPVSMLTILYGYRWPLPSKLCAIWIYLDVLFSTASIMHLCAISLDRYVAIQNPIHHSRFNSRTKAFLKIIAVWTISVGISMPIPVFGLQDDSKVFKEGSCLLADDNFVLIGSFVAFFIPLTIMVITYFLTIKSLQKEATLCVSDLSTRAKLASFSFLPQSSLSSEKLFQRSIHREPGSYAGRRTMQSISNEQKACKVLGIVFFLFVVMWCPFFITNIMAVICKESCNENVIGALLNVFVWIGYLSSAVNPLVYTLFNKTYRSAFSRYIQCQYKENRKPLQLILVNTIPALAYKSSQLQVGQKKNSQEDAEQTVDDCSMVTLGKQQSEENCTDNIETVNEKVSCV

Target: 5-hydroxytryptamine receptor 2A (Rattus norvegicus, UniProt P14842)

Ki: 5.37 µM
SMILES: CN(C)CCCC1(c2ccc(F)cc2)OCc2cc(C#N)ccc21 (stereo unspecified) [CITALOPRAM HYDROBROMIDE]
